Laboratory results taken from PubChem BioAssay AID624378 (The Scripps Research Institute Molecular Screening Center, 2012).
The entries are a selection whose mix differs from that of the whole data set. The source made the active and inactive calls.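 Rule for the calls: active = average inhibition above a cutoff equal to the mean inhibition of all tested compounds plus one SD (cut at about 70% in these data); inactive = the rest.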

By UniProt entry, the sequences of proteins in these tests, tags left out.
UniProt Q9Y5X4, whole entry: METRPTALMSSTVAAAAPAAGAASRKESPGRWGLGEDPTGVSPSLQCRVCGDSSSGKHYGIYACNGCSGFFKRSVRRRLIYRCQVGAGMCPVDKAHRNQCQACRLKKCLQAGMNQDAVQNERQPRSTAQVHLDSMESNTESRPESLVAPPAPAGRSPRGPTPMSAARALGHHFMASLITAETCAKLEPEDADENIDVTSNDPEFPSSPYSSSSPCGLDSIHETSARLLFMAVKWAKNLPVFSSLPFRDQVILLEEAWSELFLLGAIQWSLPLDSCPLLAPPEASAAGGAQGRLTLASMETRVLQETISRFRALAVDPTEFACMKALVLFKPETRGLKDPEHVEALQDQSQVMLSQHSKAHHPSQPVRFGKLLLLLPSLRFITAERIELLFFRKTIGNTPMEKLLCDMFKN

Each compound was assayed against Photoreceptor-specific nuclear receptor (Homo sapiens) (UniProt Q9Y5X4) (assay: retest of NR2E3-NCOR disrupting agonists – cell-based, luminescence, CHO-S two-hybrid, confirmation (AID 624378;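 note: 0% = DMSO in NR2E3 cells and 100% = DMSO in cells lacking NR2E3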)). Settings: CHO-S mammalian two-hybrid NR2E3-NCOR, luciferase luminescence; at 3.98 µM; hits give high values.

Structure (SMILES) | inhibition
CCCCn1nnnc1C(c1ccccc1OC(F)(F)F)N1CCC(n2c(=O)[nH]c3ccccc32)CC1 (stereo unspecified) | inactive: 52.5%
